Literature values in patent US20110155130A1, “Dronabinol Treatment for Migraines” (Unimed Pharmaceuticals, Inc., priority 2005, published 2011).

Details: acute migraine attacks

Question: With `O=C(O)C(O)C(O)C(=O)O.Oc1ccc2c(c1)[C@@]13CCCC[C@@]1(O)[C@@H](C2)N(CC1CCC1)CC3` [Butorphanol tartrate] as the molecule, how does the “onset of pain relief” value read?
Answer: The value was no more than 15 min.
